# SIRT5 block – SIRT5 desuccinylase inhibitors, primary screen, biochemical, fluorescence imaging, single point, set 5; NAD-dependent protein deacylase sirtuin-5, mitochondrial (Homo sapiens), Q9NXA8; Purified SirT5, succinyl-peptide AMC, trypsin-coupled fluorescence; inhibition, % at 15 µM; 1.1% of 330,000 active; AID 652115, 2013; in the data active = inhibition above about 15%
# FGF22 binding – binders of human FGF22 protein, primary screen, FGF22 synaptogenesis inhibitor project, biophysical, thermal shift, single point; Fibroblast growth factor 22 (Homo sapiens), Q9HCT0; recombinant FGF22 thermal shift, SYPRO orange fluorescence; percent of sucrose octasulfate shift, DMSO zero; activity (Tm shift, normalised), % at 9.99 µM; 1.5% of 340,000 active;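 active = mean Tm shift, scaled 0 neutral to 100 positive control, at about 1.3% or above, every replicate too, limit read from the data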
# Yeast UUG start – yeast start codon fidelity modulation; AID 602363; activity score, % at 18.7 µM; S. cerevisiae UUG-firefly luciferase reporter, luminescence/redox ratio; 0.13% of 350,000 active;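 active means replicate mean at a twofold rise or more, about +100% in these data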;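 further: firefly luciferase made from a UUG start codon reports start codon fidelity; reporter light over untreated wells divided by growth signal over untreated wells; some hits fall short of that in this replicate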
# S100A4 inh HTS – inhibitors of S100A4-myosin IIA peptide binding, primary screen, biochemical, fluorescence polarization, TAMRA-MyoIIA peptide; inhibition, % at 10.7 µM; Protein S100-A4 (Homo sapiens), P26447; 0.14% of 360,000 active;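 active = mean inhibition of at least 70% across replicates, with every replicate also reaching that level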
#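 assay system = human S100A4 monomer with TAMRA-labelled myosin IIA peptide | also added = labelled myosin peptide probe, 5 nM | incubation = 5 min between mix addition and reading | control set = DMSO and TFP controls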
# PDI turbidity – inhibitors of human PDI, primary screen, biochemical, turbidity, single point, plate reader; inhibition, % at 10 µM; AID 588391, 2011; Protein disulfide-isomerase (Homo sapiens), P07237; PDI insulin aggregation turbidity, A650, 90 min; 0.052% of 350,000 active;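 active = mean inhibition across replicates of 30% or more, whatever share of single replicates reach that level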
# ERp5 block – inhibitors of ERp5-driven insulin aggregation, primary screen, biochemical, turbidity, absorbance 650 nm, single point; AID 651711, 2012; inhibition, % at 9.99 µM; 90 min; 0.05% of 350,000 active; Protein disulfide-isomerase A6 (Homo sapiens), Q15084;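 active = mean replicate inhibition above about 25%, with every replicate also reaching it, limit read from the data, passing the limit was not always enough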
# Starred values were filed as active, the others as inactive; · = no result given. Most compounds without a hit are left out; they make up all but 2.2% or so of the library.
1. COCC(=O)OCC(=O)N1N=C(c2ccc(Cl)cc2)CC1c1ccco1 (stereo unspecified)
2. Cc1cc(O)c(/C=N/c2ccccn2)c(=O)o1
3. Cc1cccc(/N=C/c2c(O)cc(C)oc2=O)n1
4. COc1ccc(S(=O)(=O)Nc2ccc3c(c2)C(=O)N([C@H](C)CO)C[C@H](C)[C@H](CN(C)Cc2ccc(C(F)(F)F)cc2)OCCCC[C@H](C)O3)cc1
5. COc1ccc(S(=O)(=O)Nc2ccc3c(c2)C(=O)N([C@H](C)CO)C[C@@H](C)[C@@H](CN(C)Cc2ccc(C(F)(F)F)cc2)OCCCC[C@@H](C)O3)cc1
6. COc1ccc(S(=O)(=O)Nc2ccc3c(c2)C(=O)N([C@@H](C)CO)C[C@@H](C)[C@H](CN(C)Cc2ccc(C(F)(F)F)cc2)OCCCC[C@H](C)O3)cc1
7. COc1ccc(S(=O)(=O)Nc2ccc3c(c2)C(=O)N([C@H](C)CO)C[C@@H](C)[C@@H](CN(C)Cc2ccc(C(F)(F)F)cc2)OCCCC[C@H](C)O3)cc1
8. COc1ccc(S(=O)(=O)Nc2ccc3c(c2)C(=O)N([C@@H](C)CO)C[C@@H](C)[C@@H](CN(C)Cc2ccc(C(F)(F)F)cc2)OCCCC[C@@H](C)O3)cc1
assay / entry | 1 | 2 | 3 | 4 | 5 | 6 | 7 | 8
SIRT5 block | -1.4 | -0.5 | 15.2* | 39.3* | 15.3* | 6.8 | 17.5* | 21.7*
FGF22 binding | 44.0* | · | · | 0.2 | -0.5 | 0.2 | -0.6 | -0.1
Yeast UUG start | · | -6.5 | -1.5 | 14.4 | 22.1 | 7.9 | 33.1 | 24.0
S100A4 inh HTS | -2.1 | -32.7 | -50.6 | 17.4 | 19.8 | 30.1 | 14.9 | 1.9
PDI turbidity | -8.2 | -8.3 | -0.1 | · | · | · | · | ·
ERp5 block | 2.6 | -1.3 | -3.0 | -0.7 | 0.5 | 0.7 | 1.9 | 1.0

9. Cc1noc(C)c1NC(=O)N(C)C[C@H]1Oc2ccc(NC(=O)Cc3ccccc3)cc2CC(=O)N([C@H](C)CO)C[C@@H]1C
10. COCC(=O)N1CC2(CCN(Cc3cncnc3)CC2)c2c(n(C)c3cc(OC)ccc23)[C@H]1CO
11. C[C@@H]1CN([C@H](C)CO)C(=O)c2cccc(NC(=O)NC3CCCCC3)c2O[C@H]1CN(C)C
12. CN1CCN(C(=O)C[C@@H]2CC[C@@H]3[C@H](COc4ccc(NC(=O)C5CCCCC5)cc4C(=O)N3C)O2)CC1
13. CCN1/C(=C2\C(=O)N(C)C(=S)N2C)C=Cc2ccccc21
14. CC(=O)Nc1ccc(NC(=O)c2ccccc2CCc2ccccc2)cc1
15. CC(=O)Nc1ccc(NC(=O)c2ccccc2C)cc1
16. O=C(CCNS(=O)(=O)c1ccc(Cl)cc1)OCC(=O)N1CCN(C(=O)c2ccco2)CC1
assay / entry | 9 | 10 | 11 | 12 | 13 | 14 | 15 | 16
SIRT5 block | -0.6 | · | -2.6 | 3.2 | -1.5 | -5.0 | -1.0 | -2.0
FGF22 binding | -0.1 | 0.1 | 0.1 | 0.1 | 43.1* | 44.1* | 0.2 | 13.1*
Yeast UUG start | -3.0 | · | -5.8 | -7.3 | · | · | -22.0 | ·
S100A4 inh HTS | 6.9 | · | -11.6 | -0.9 | -7.0 | -4.2 | 2.4 | -16.5
PDI turbidity | · | · | · | · | 2.9 | 7.2 | 2.8 | 0.5
ERp5 block | -1.2 | · | -2.5 | -1.5 | 1.0 | -7.5 | -4.4 | -0.9

17. CC=Cc1ccc2n(c1=O)C[C@H]1[C@H](CO)[C@@H](C(=O)NCCC)N(C(=O)CC3CC3)[C@@H]21 (mixture of isomers)
18. O=C([C@H]1N[C@H]2c3ccc(-c4ccccc4F)c(=O)n3C[C@H]2[C@@H]1CO)N1CCc2ccccc2C1
19. COc1ccc(C(=O)On2c(-c3ccc(Br)cc3)nc3ccccc3c2=O)cc1
20. COc1cc(OC)cc(-c2nc3ccccc3c(=O)n2OC(=O)c2ccc(Br)cc2)c1
21. Cc1cccc(S(=O)(=O)N2CCCCN3[C@H](C2)[C@@H](c2ccc(C#C[C@@H](C)O)cc2)[C@@H]3CO)c1
22. CC1CCCCN1C(=O)Nc1cccc(C(F)(F)F)c1 (stereo unspecified)
23. COC(=O)C1CC(O)CN1C(=O)Nc1cccc(C(F)(F)F)c1 (stereo unspecified)
24. CO[C@@H]1CN(C)C(=O)c2cc(NS(C)(=O)=O)ccc2OC[C@@H](C)NC[C@H]1C
assay / entry | 17 | 18 | 19 | 20 | 21 | 22 | 23 | 24
SIRT5 block | -20.6 | -5.1 | -1.7 | 1.8 | 0.3 | -3.4 | -3.0 | 2.2
FGF22 binding | -0.1 | 0.2 | 0.6 | 1.7* | -0.2 | 0.1 | 43.3* | 0.2
Yeast UUG start | · | · | 23.6 | · | -3.4 | · | -13.5 | ·
S100A4 inh HTS | -14.4 | -12.0 | 4.1 | 0.6 | -1.1 | 8.1 | 0.5 | -7.6
PDI turbidity | · | · | -11.7 | -1.0 | · | -5.5 | -0.4 | ·
ERp5 block | -0.7 | -5.2 | 2.1 | -0.9 | 0.2 | 3.3 | 2.9 | -5.6

25. COc1ccc(S(=O)(=O)N(C)C[C@@H]2Oc3ccc(NS(=O)(=O)c4ccccc4)cc3CC(=O)N([C@@H](C)CO)C[C@H]2C)cc1
26. Cn1c(N)c(C(=O)CSc2nnc(C3CC3)n2N)c(=O)n(C)c1=O
27. Cn1nnnc1SCC(=O)c1c(N)n(C)c(=O)n(C)c1=O
28. Cn1c(N)c(C(=O)COC(=O)C2CCCC2)c(=O)n(C)c1=O
29. Cn1c(N)c(C(=O)COC(=O)/C=C/c2ccc(Cl)cc2Cl)c(=O)n(C)c1=O
30. COc1ccccc1NC(=O)N(C)C[C@@H]1Oc2ncc(C#CC(C)C)cc2C(=O)N([C@@H](C)CO)C[C@H]1C
31. Cn1c(-c2csc(-c3ccccc3)n2)n[nH]c1=S
32. Cc1ccc(-c2n[nH]c(=S)n2C)cc1
assay / entry | 25 | 26 | 27 | 28 | 29 | 30 | 31 | 32
SIRT5 block | 4.5 | 19.4* | · | -2.4 | · | -1.3 | 0.1 | ·
FGF22 binding | -0.3 | 0.1 | · | 43.1* | 43.8* | -0.1 | 43.8* | ·
Yeast UUG start | 0.2 | -11.6 | 3.8 | · | -10.6 | · | -22.4 | ·
S100A4 inh HTS | -19.7 | -1.0 | · | 0.9 | -1.4 | 0.0 | -0.2 | ·
PDI turbidity | · | 5.0 | 2.1 | -1.9 | -45.7 | · | -6.4 | -0.2
ERp5 block | 7.8 | -9.1 | · | -0.2 | 5.5 | -5.7 | -1.2 | ·

# Screen by screen, as entered above.
# Entries 25–31 in PDI turbidity read ·, 5.0, 2.1, -1.9, -45.7, ·, -6.4
# Entries 25–31 in SIRT5 block read 4.5, 19.4*, ·, -2.4, ·, -1.3, 0.1

# Following part:
33. Cc1cccc(C)c1NC(=S)N(CCc1ccncc1)C(C)C
34. O=C(Cc1ccccc1)N[C@H]1CC[C@H](CC(=O)N2CCCCC2)O[C@H]1CO
35. COc1cccc(NC(=O)N(C)C[C@H]2Oc3ncc(C4=CCCCC4)cc3C(=O)N([C@H](C)CO)C[C@@H]2C)c1
36. CC(=O)N(C)C[C@H]1Oc2ncc(C3=CCCC3)cc2C(=O)N([C@H](C)CO)C[C@H]1C
37. C[C@@H]1CN([C@H](C)CO)C(=O)c2cc(C3=CCCC3)cnc2O[C@@H]1CN(C)Cc1ccc(F)cc1
38. C[C@@H]1CN([C@H](C)CO)C(=O)c2cc(C3=CCCCC3)cnc2O[C@H]1CN(C)C(=O)Nc1cccc(F)c1
39. CCNC(=O)[C@H]1[C@H](CO)[C@H]2Cn3c(ccc(/C=C/c4ccccc4)c3=O)[C@@H]1N2
assay / entry | 33 | 34 | 35 | 36 | 37 | 38 | 39
SIRT5 block | 15.9* | 8.5 | 19.6* | 33.9* | 3.0 | 3.1 | -85.7
FGF22 binding | 0.3 | -0.5 | -0.7 | 0.0 | -0.4 | -0.2 | 0.1
Yeast UUG start | · | -5.4 | 10.5 | 0.2 | 21.3 | -0.4 | ·
S100A4 inh HTS | 0.1 | 13.5 | 22.0 | -6.9 | 104.6* | -7.5 | 7.3
PDI turbidity | -12.4 | · | · | · | · | · | ·
ERp5 block | 2.6 | 0.3 | -5.0 | -5.9 | 6.4 | -0.1 | -6.7

# Quoted at random: two compounds from above, in no set order.
37. C[C@@H]1CN([C@H](C)CO)C(=O)c2cc(C3=CCCC3)cnc2O[C@@H]1CN(C)Cc1ccc(F)cc1
36. CC(=O)N(C)C[C@H]1Oc2ncc(C3=CCCC3)cc2C(=O)N([C@H](C)CO)C[C@H]1C
assay / entry | 37 | 36
SIRT5 block | 3.0 | 33.9*
FGF22 binding | -0.4 | 0.0
Yeast UUG start | 21.3 | 0.2
S100A4 inh HTS | 104.6* | -6.9
PDI turbidity | · | ·
ERp5 block | 6.4 | -5.9

# Assay outcomes as filed in PubChem BioAssay.
